# Experiments:
# HLA-A03.01 (human) = assay: peptide-HLA class I complex stability, method not described; conditions: remark: other sources report otherwise
# HLA-A11.01 (human) = assay: as above; conditions: remark: other sources report otherwise
binder,measurement,setting,value
"VVVGACGVGK [KRAS, G12C peptide …]",Measured stability,HLA-A03.01 (human),2.5 h
same,Measured stability,HLA-A11.01 (human),15.7 h
